This note sets out measurements from ChEMBL document CHEMBL5331091, “Design, synthesis and evaluation of antitumor activity of selective PRMT6 inhibitors” (Eur J Med Chem, 2023).

Protein sequences, listed by entry. Tags and fused reporters are not part of them.
UniProt Q96LA8, whole entry, looked up: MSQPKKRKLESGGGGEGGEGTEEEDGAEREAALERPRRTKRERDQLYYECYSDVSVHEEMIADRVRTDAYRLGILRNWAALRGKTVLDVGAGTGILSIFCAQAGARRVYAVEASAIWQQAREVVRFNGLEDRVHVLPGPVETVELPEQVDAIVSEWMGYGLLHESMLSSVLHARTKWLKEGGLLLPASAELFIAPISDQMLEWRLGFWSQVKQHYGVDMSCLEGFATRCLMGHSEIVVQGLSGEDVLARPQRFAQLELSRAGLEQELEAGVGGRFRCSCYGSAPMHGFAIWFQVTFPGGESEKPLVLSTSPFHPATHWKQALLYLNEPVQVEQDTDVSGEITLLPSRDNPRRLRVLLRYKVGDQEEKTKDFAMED

The assay concerns the target Protein arginine N-methyltransferase 6 (Homo sapiens, UniProt Q96LA8). The following applies: dose 0-837.55 nM.

Each structure is given as a SMILES string. Calls of active or inactive are those of the source. No cut-off for these calls is given here.

For the molecule `CNCCN(C)Cc1cncc(-c2ccc(NS(=O)(=O)C3CC3)cc2)c1`, the inhibition result was “Active”.
